From PubChem BioAssay AID488784 (Sanford-Burnham Center for Chemical Genomics, 2010) come the findings set out here.

Each structure is given as a SMILES string. This is a selection; strong and weak results do not stand in their true shares. The source made the active and inactive calls. Cut-off read from the data, not from the text of the source: active = inhibition above about 50%; inactive = the rest.

The test is described as follows: CASP1-PYCARD signaling inhibition in yeast, confirmatory test, counterassay for NLRP3 inhibitor program, one-dose (AID 488784). The settings on record: yeast expressing Caspase-1-ASC, luminescence counter screen; at 10 µM; stronger effect = higher value. On the technique in general: The purpose of a counterscreen is to sort out artefacts and off-target activity.
`CC(C)(C)OC(=O)N1CCC(Nc2ccccc2)CC1`: the inhibition (commonly the relative decrease from the control value, in per cent) was active: 50.8%.
